Experimental data as given in PMC6153800, “Structure-Based Drug Design and Characterization of Sulfonyl-Piperazine Benzothiazinone Inhibitors of DprE1 from Mycobacterium tuberculosis” (Antimicrobial Agents and Chemotherapy, 2018).

Tested on: HepG2 cells

CO[C@H]1/C=C/O[C@@]2(C)Oc3c(C)c(O)c4c(O)c(c(/C=N/N5CCN(C)CC5)c(O)c4c3C2=O)NC(=O)/C(C)=C\C=C\[C@H](C)[C@H](O)[C@@H](C)[C@@H](O)[C@@H](C)[C@H](OC(C)=O)[C@@H]1C [Rifampin, reference compound]
Selective index: 125,000
